What is called Km is the concentration of substrate that gives half-maximal velocity. Broadly, the kcat is the number of substrate molecules converted per active site and unit of time at saturation. For orientation: kcat/Km means the turnover number divided by the Michaelis constant.

The labels stand for the following.
B1: PsaPOX (Pleurotus sapidus; A307E/A309S/G184D/G306A/I429V/L305Q/N314D/N350K/Q185P/S371I/V388A) (protein)
chain: MTTPAPPLDLNNIQGDILGGLPKKTETYFFFDVTNVDRFKANMTQFIPHVKTSAGIVKDREAIKEHKRQKRPGLVPMAAVNVSFSHLGLQKLGITDDLSDSSFTTGQRKDAEVLGDPGTKNGDTFTPAWEAPFLKDIHGVIFVAGDCHASVHKKLDEIKHIFGVGTSHASISEVTHVRGDVRPDPVSAHEHFGFLDGISNPAVDQFDQNPFPGQDSIRPGFILAKENGDSRAAARPDWAKDGSFLTFRYLFQMVPEFDDFLESNPIVLPGLSRKEGSELLGARIVGRWKSGAPIEITPLKDDPKQAEDSQRNNDFDFGDSLVRGDQTKCPFAAHIRKTYPRNDLEGPPLKADIDNRRIIRRGIQFGPEVTIQEHHDKKTHHGRGLLFACYSSSIDDGFHFIQQSWANAPNFPVNAVTSAGPIPPLDGVVPGFDAIIGQKVGGGIRQISGTNPNDPTTNITLPDQDFVIPRGGEYFFSPSISALKTKFAAGVASSAPQAQAPIST
B2: PsaPOX (Pleurotus sapidus) (protein)
chain: MTTPAPPLDLNNIQGDILGGLPKKTETYFFFDVTNVDRFKANMTQFIPHVKTSAGIVKDREAIKEHKRQKRPGLVPMAAVNVSFSHLGLQKLGITDDLSDSSFTTGQRKDAEVLGDPGTKNGDTFTPAWEAPFLKDIHGVIFVAGDCHASVHKKLDEIKHIFGVGTSHASISEVTHVRGDVRPGQVSAHEHFGFLDGISNPAVDQFDQNPFPGQDSIRPGFILAKENGDSRAAARPDWAKDGSFLTFRYLFQMVPEFDDFLESNPIVLPGLSRKEGSELLGARIVGRWKSGAPIEITPLKDDPKLGADAQRNNNFDFGDSLVRGDQTKCPFAAHIRKTYPRNDLEGPPLNADIDNRRIIRRGIQFGPEVTSQEHHDKKTHHGRGLLFVCYSSSIDDGFHFIQQSWANAPNFPVNAVTSAGPIPPLDGVIPGFDAIIGQKVGGGIRQISGTNPNDPTTNITLPDQDFVIPRGGEYFFSPSISALKTKFAAGVASSAPQAQAPIST
B3: PsaPOX (Pleurotus sapidus; S371H) (protein)
chain: MTTPAPPLDLNNIQGDILGGLPKKTETYFFFDVTNVDRFKANMTQFIPHVKTSAGIVKDREAIKEHKRQKRPGLVPMAAVNVSFSHLGLQKLGITDDLSDSSFTTGQRKDAEVLGDPGTKNGDTFTPAWEAPFLKDIHGVIFVAGDCHASVHKKLDEIKHIFGVGTSHASISEVTHVRGDVRPGQVSAHEHFGFLDGISNPAVDQFDQNPFPGQDSIRPGFILAKENGDSRAAARPDWAKDGSFLTFRYLFQMVPEFDDFLESNPIVLPGLSRKEGSELLGARIVGRWKSGAPIEITPLKDDPKLGADAQRNNNFDFGDSLVRGDQTKCPFAAHIRKTYPRNDLEGPPLNADIDNRRIIRRGIQFGPEVTHQEHHDKKTHHGRGLLFVCYSSSIDDGFHFIQQSWANAPNFPVNAVTSAGPIPPLDGVIPGFDAIIGQKVGGGIRQISGTNPNDPTTNITLPDQDFVIPRGGEYFFSPSISALKTKFAAGVASSAPQAQAPIST

Substrate in this series: CCn1c(=NN=c2sc3cc(S(=O)(=O)O)ccc3n2CC)sc2cc(S(=O)(=O)O)ccc21
Put plainly: purified protein. The note with it: 100 µM H2O2, 100 mM sodium acetate, pH 3.5, 40 °C.
Turning to B1, the Km is 31.9 ± 2.3 µM, the kcat is 3.8 s⁻¹ and the specificity constant (kcat/Km) came to 119000 M⁻¹ s⁻¹.
In the case of B2, the Km amounted to 33.0 ± 2.5 µM, the kcat worked out at 6.8 s⁻¹ and the kcat/Km came to 206000 M⁻¹ s⁻¹.
The corresponding values for B3 are 25.8 ± 1.6 µM, 10.5 s⁻¹ and 408000 M⁻¹ s⁻¹.

(Values after article PMC7866418.)
